Assay results reported in patent publication US20240083974A1, “Artificial Transmembrane Proteins for Detecting Intracellular or Intravesicular Biomolecular Interactions” (published 2024).

Sequences of proteins named here, by UniProt entry; tags and fusion partners are left off. A change or cut given only in a name is not applied to a line headed by its entry.
UniProt P62993: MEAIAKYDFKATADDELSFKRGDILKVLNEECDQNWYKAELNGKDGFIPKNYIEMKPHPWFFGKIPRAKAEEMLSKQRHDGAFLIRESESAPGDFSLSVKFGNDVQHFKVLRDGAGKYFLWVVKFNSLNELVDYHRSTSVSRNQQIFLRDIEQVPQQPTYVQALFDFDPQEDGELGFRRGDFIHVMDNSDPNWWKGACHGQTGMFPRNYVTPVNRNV

Key:
eYFP receptor structure = eYFP receptor structure (Aequorea victoria, UniProt P42212, H231L/S65G/S72A/T203Y/V68L); assay: Same measurement in control cells with artificial transmembrane protein containing eYFP as the receptor structure; conditions: living cells expressing the eYFP artificial transmembrane protein; signal remains constant at the baseline
[1] = target: Grb2 receptor structure (Grb2 SH3 domain) (Homo sapiens, UniProt P62993); assay: Real-time label-free signal of living cells with artificial transmembrane protein containing Grb2 as the receptor structure, after peptide injection

KKWKMRRNPFWIKIQRC-CGIRVVDNSPPPPLPPRRRRSAPSPTRV-amide
binding to non-specific receptor structure eYFP (eYFP receptor structure): does not bind
time the signal remains within the baseline after injection of the peptide (lag before response) ([1]; lag presumably time for the peptide to diffuse across the cell membrane and bind the Grb2 SH3 domain): about 20 minutes
binding to the Grb2 receptor structure inside living cells ([1]; living cells expressing the Grb2 artificial transmembrane protein, FIG. 4d, response increases): specifically binds
